Water solubility values, as collected for the OPERA models

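OPERA's authors assembled the values from existing databases and did not measure them anew. One number stands for a compound and property, with no spread given. Conditions of the individual experiments are not part of the data. The measured form (salt, isomer or mixture) is not always the one drawn. Some upstream entries may be estimates or bounds without being marked so.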

Solubility in water is on a log10 molar scale (set defined at 25 °C).

| compound | log S (log10 mol/L) |
|---|---|
| CC(C)CCC(C)C(C)O (stereo not given) | -2.413 |
| CC/C=C\CCOC(=O)C/C=C\CC | -4.512 |
| CCCCCCCCCCCCNc1nc(Cl)nc(Nc2ccc3c(O)c(/N=N/c4ccc(/N=N/c5ccc(S(=O)(=O)[O-])cc5)cc4)c(S(=O)(=O)[O-])cc3c2)n1.[Na+].[Na+] | -3.359 |
| Cc1cc(C)c(Cl)c(O)c1 | -2.718 |
| COC(=O)C=Cc1ccccc1 | -2.744 |
| CCCCCCCC(=O)NCC(=O)O | -2.112 |
| CCOC(=O)/C(=C\c1ccc(Cl)cc1)N=CO | -3.01 |
| CCCCc1ccc(-c2ccc(-c3ccc(CC)cc3)c(F)c2F)cc1 | -7.244 |
| Clc1cc(Cl)c(Oc2cc(Cl)c(Cl)cc2Cl)c(Cl)c1 | -8.04 |
| CNC(=O)[C@@H](NC(=O)[C@H](CC(C)C)[C@H](O)C(=O)NO)C(C)(C)C | -1.991 |
| CCCCCCCCCCCC(=O)OC1CC(C)(C)NC(C)(C)C1 | -5.252 |
| COc1ccc(C(O)CC(O)c2ccc(C(C)(C)C)cc2)cc1 (stereo not given) | -3.838 |
| CCCCC1CCC(C2CCC(CCC)CC2)CC1 (stereo not given) | -6.644 |
| Nc1ccc(Cl)c(S(=O)(=O)O)c1 | -1.754 |
| COc1cc(NC(C)CCCN)c2ncccc2c1 (stereo not given) | -3.663 |
| c1ccc(N(CC2CO2)CC2CO2)cc1 (stereo not given) | -1.962 |
| CCC(C)OC(C)CC (stereo not given) | -2.598 |
| c1ccc2oc(-c3ccc(-c4nc5ccccc5o4)s3)nc2c1 | -7.52 |
| CCCCCC[C@@H](O)C/C=C\CCCCCCCC(=O)O | -1.932 |
| [N-]=[N+]=C1C=C(S(=O)(=O)Cl)c2ccccc2C1=O | -2.849 |
| O=C(Nc1ccc(Cl)cc1)c1cc([N+](=O)[O-])ccc1O | -5.122 |
| CCCCC(CC)COC(=O)C1CCC2OC2C1 (stereo not given) | -3.326 |
| COc1ccc(C)cc1NC(C)=O | -1.931 |
| CN1[C@@H](C(=O)O)CC[C@H]1C(=O)O | -0.443 |
| Clc1ccc(Oc2cc(Cl)cc(Cl)c2Cl)cc1 | -7.14 |
| CCC(COC(=O)CC(C)CC(C)(C)C)(COC(=O)CC(C)CC(C)(C)C)COC(=O)CC(C)CC(C)(C)C (stereo not given) | -6.232 |
| CC(C)C(=O)OCc1ccccc1 | -2.256 |
| CC(=O)c1ccc(CC(C)C)cc1 | -3.371 |
| C=CC1(C)CCCC(C)(C)O1 (stereo not given) | -2.536 |
| CC(C)(C(=O)c1cccnc1)c1cccnc1 | -2.724 |
| CC1=NN(c2cc(S(=O)(=O)[O-])ccc2Cl)C(=O)C1/N=N/c1cc(Cl)ccc1Oc1ccccc1Cl.[Na+] (stereo partly drawn) | -2.316 |
| CC(C)(C)c1nnc(NS(=O)(=O)c2ccc(N)cc2)s1 | -3.74 |
| CC(C)OC(=O)CCC/C=C\C[C@@H]1[C@@H](/C=C/C(F)(F)COc2ccccc2)[C@H](O)C[C@@H]1O | -4.933 |
| CCCCCCCCC(CCCCCC)C(=O)OCC(COC(=O)C(CCCCCC)CCCCCCCC)(COC(=O)C(CCCCCC)CCCCCCCC)COC(=O)C(CCCCCC)CCCCCCCC (stereo not given) | -6.338 |
| Nc1ccc(N=Nc2ccc([N+](=O)[O-])cc2)cc1 | -5.851 |
| CCCCC[C@H](O)/C=C/[C@@H]1[C@@H](C/C=C\CCCC(=O)O)[C@@H](O)C[C@H]1O | -5.14 |
| O=C(O)c1c(Br)cc(Br)cc1Br | -2.011 |
| C=C(Nc1ccc(OCC)cc1)Nc1ccc(OCC)cc1 | -1.128 |
| O=CC(C(=O)O)(c1ccccc1)[N+](=O)[O-] (stereo not given) | -1.843 |
| NS(=O)(=O)c1cc2c(s1)[S+]([O-])CCC2O (stereo not given) | -1.348 |
| Clc1cc(Cl)c(Oc2c(Cl)c(Cl)cc(Cl)c2Cl)cc1Cl | -9.05 |
| CN(C)c1ccc(N=Nc2ccc([N+](=O)[O-])cc2)cc1 | -8.699 |
| COc1ccc(C(=O)Nc2ccc(C3=NNC(=O)CC3C)cc2N)cc1 (stereo not given) | -4.655 |
| O=[N+]([O-])c1ccc(N/N=C\CCCO)c([N+](=O)[O-])c1 | -2.826 |
| O=C1OCCCN1N=Cc1ccc([N+](=O)[O-])o1 | -3.48 |
| CC(C)CCCCCCCOC(=O)C=CC(=O)OCCCCCCCC(C)C | -6.422 |
| CCOC1CC(C)CC(C)(C)C1 (stereo not given) | -4.134 |
| O=C1CC/C=C\CCCCCCCCCC1 | -4.883 |
| O=S(=O)(F)C(F)(F)C(F)(F)OC(F)(Cl)C(F)(F)Cl (stereo not given) | -5.956 |
| CCOCC1CCC(COCC)CC1 (stereo not given) | -2.547 |
| Cc1cc(NC(=N)O)ccc1F | -1.79 |

Excerpt, the opening 8 entries:

| compound | log S (log10 mol/L) |
|---|---|
| CC(C)CCC(C)C(C)O (stereo not given) | -2.413 |
| CC/C=C\CCOC(=O)C/C=C\CC | -4.512 |
| CCCCCCCCCCCCNc1nc(Cl)nc(Nc2ccc3c(O)c(/N=N/c4ccc(/N=N/c5ccc(S(=O)(=O)[O-])cc5)cc4)c(S(=O)(=O)[O-])cc3c2)n1.[Na+].[Na+] | -3.359 |
| Cc1cc(C)c(Cl)c(O)c1 | -2.718 |
| COC(=O)C=Cc1ccccc1 | -2.744 |
| CCCCCCCC(=O)NCC(=O)O | -2.112 |
| CCOC(=O)/C(=C\c1ccc(Cl)cc1)N=CO | -3.01 |
| CCCCc1ccc(-c2ccc(-c3ccc(CC)cc3)c(F)c2F)cc1 | -7.244 |

From the experimental data distributed with OPERA 2.9.